Assay results from US6713266B1 (Isodiagnostika Inc., priority 1998, dated 2004).

Key:
Assay type in all cases: binding
[1] = test system: Mouse monoclonal antibody AM19-1-7E12-2; assay: Antigen panel (direct) ELISA, MoAb tissue culture supernatant; settings: for Percent reactivity: AM19-1-7E12-2, OD to test antigen / OD to AM19-1-DVS (1)-HSA × 100; for OD: AM19-1-7E12-2 TCS, coated test antigen
Protocol: (§1) 1. Use Falcon Pro-bind immunoplate.
(§2) 2. Dilute coating antigen (Ag) to 1.0 μg/mL in carbonate-bicarbonate buffer. Use glass tubes.
(§3) 3. Add 100 μL to each well of plate. Store overnight at 4° C.
(§4) 4. Shake out wells and wash 3× with 200 μL PBS/0.05% TWEEN™ (polyoxyethylene-sorbitol) (v/v) per well.
(§5) 5. Add blocking buffer, 200 μL per well (PBS/2% BSA (w/v)). Incubate for 60 min at 37° C.
(§6) 7. Add 100 μL per well of test antibody appropriately diluted in PBS/0.1% Tween (v/v). Incubate 60 min at 37° C.
(§7) 9. Dilute alkaline phosphatase conjugated anti-mouse IgG (Pierce cat #31322) in PBS/0.1% TWEEN™ (polyoxyethylene-sorbitol) (v/v) to 1:2000 concentration. Add 100 μL per well and incubate at 37° C. for 60 min.
(§8) 10. Wash 3× as in step 4.
(§9) 11. Prepare enzyme substrate using Sigma #104 alkaline phosphatase substrate tablets (1 mg/mL in 10% diethanolamine (v/v) substrate buffer). Add 100 μL per well and incubate in the dark at room temperature. Absorbance can be read at 405 nm at approximately 15-min intervals.
(§10) Spleen cells from mice immunized with the AM19-1-DVS (1) conjugate have been used to prepare MoAb secreting hybridoma cells. Anti-AM19-1-DVS (1) ELISA reactive IgM and IgG MoAb isotypes have been isolated. Table 19 illustrates the reactivity of TCS from two of these anti-AM19-1-DVS MoAbs (AM19-1-7E12-1 and AM19-1-7E12-2).

[2] = test system: Mouse monoclonal antibody AM19-1-7E12-1; assay: as above; settings: for Percent reactivity: AM19-1-7E12-1, OD to test antigen / OD to AM19-1-DVS (1)-HSA × 100; for OD: AM19-1-7E12-1 TCS, coated test antigen
Protocol: as §1, §2, §3, §4, §5, §6, §7, §8, §9, §10

[3] = test system: Mouse polyclonal sera (CSA-DVS-KLH immunogen); assay: Antigen panel (direct) ELISA, mouse polyclonal sera; settings: for Percent reactivity: OD to test antigen / OD to CSA-DVS-HSA × 100; for OD: coated test antigen
Protocol: as §1, §2, §3, §4, §5, §6, §7, §8, §9
These sera had low reactivity to the AM19-9-DVS-HSA conjugate.

[4] = test system: Mouse polyclonal sera (AM9-1-DVS-KLH immunogen); assay: as above; settings: for Percent reactivity: OD to test antigen / OD to AM9-1-DVS-HSA × 100; for OD: coated test antigen
Protocol: as §1, §2, §3, §4, §5, §6, §7, §8, §9
The reduction in antibody binding to the AM19-9 hapten is presumed to be due to masking of the epitope recognition site, (i.e., blocking the modified a.a. #9 residue with the DVS linker arm would thereby block Ab/Ag interaction). […] Screening for specific anti-AM9 MoAbs can also be achieved.

[5] = test system: Mouse polyclonal sera (AM19-1-DVS (1) - KLH immunogen); assay: as above; settings: for Percent reactivity: OD to test antigen/OD to AM19-1-DVS (1) × 100; for OD: coated test antigen
Protocol: as §1, §2, §3, §4, §5, §6, §7, §8, §9
(§11) These serum samples were assayed by direct ELISA for antibody titre to specific haptens. Sera showing high antibody reactivity to AM19 were further characterized by antigen panel ELISA (Table 6).

[6] = test system: Mouse polyclonal sera (AM19-1-DVS (2) - KLH immunogen); assay: as above; settings: for Percent reactivity: OD to test antigen/OD to AM19-1-DVS (2) × 100; for OD: coated test antigen
Protocol: as §1, §2, §3, §4, §5, §6, §7, §8, §9, §11

[7] = test system: Mouse monoclonal antibody AM1-7F5; assay: Antigen panel (direct) ELISA, MoAb tissue culture supernatant; settings: for Percent reactivity: AM1-7F5, OD to test antigen / OD to CSA-DVS-HSA × 100; for OD: AM1-7F5 TCS, coated test antigen
Protocol: as §1, §2, §3, §4, §5, §6, §7, §8, §9
(§12) Spleen cells from mice immunized with the AM1-DVS conjugates have been used to prepare monoclonal antibody secreting hybridoma cells. IgM and IgG anti-CSA MoAbs have been isolated by direct ELISA to CSA-DVS-HSA conjugates. Table 17 illustrates the reactivity of TCS from two of these monoclonal antibody clones (AM1-2E10 and Am1-7F5).

[8] = test system: Mouse monoclonal antibody AM1-2E10; assay: as above; settings: for Percent reactivity: AM1-2E10, OD to test antigen / OD to CSA-DVS-HSA × 100; for OD: AM1-2E10 TCS, coated test antigen
Protocol: as §1, §2, §3, §4, §5, §6, §7, §8, §9, §12

[9] = test system: Mouse monoclonal antibody CSA-1H6; assay: as above; settings: for Percent reactivity: CSA-1H6, OD to test antigen / OD to CSA-DVS-HSA × 100; for OD: CSA-1H6 TCS, coated test antigen
Protocol: as §1, §2, §3, §4, §5, §6, §7, §8, §9
(§13) Spleen cells from mice immunized with the CSA-DVS conjugate have been used to prepare monoclonal antibody secreting hybridoma clones. IgM and IgG anti-CSA secreting clones have been isolated. Table 15 illustrates the reactivity of tissue culture supernatants (TCS) from two of these anti-CSA MoAbs (CSA-1H6 and CSA-2G9).

[10] = test system: Mouse monoclonal antibody CSA-2G9; assay: as above; settings: for Percent reactivity: CSA-2G9, OD to test antigen / OD to CSA-DVS-HSA × 100; for OD: CSA-2G9 TCS, coated test antigen
Protocol: as §1, §2, §3, §4, §5, §6, §7, §8, §9, §13

[11] = test system: Mouse polyclonal sera (AM1-DVS-KLH immunogens); assay: Antigen panel (direct) ELISA, mouse polyclonal sera; settings: for Percent reactivity: OD to test antigen / OD to CSA-DVS-HSA × 100; for OD: coated test antigen
Protocol: as §1, §2, §3, §4, §5, §6, §7, §8, §9
Individual mouse sera collected 10 days post-secondary and tertiary immunizations were assayed for antibody titre by direct ELISA. Mice having high anti-CSA titres were assayed for specificity by antigen panel reactivity.

[12] = test system: Mouse polyclonal sera (AM9-9-DVS-KLH immunogen); assay: as above; settings: for Percent reactivity: OD to test antigen/ OD to AM19-9-DVS-HSA × 100; for OD: coated test antigen
Protocol: as §1, §2, §3, §4, §5, §6, §7, §8, §9
Sera from mice immunized with the AM9-9-DVS immunogen which reacted strongly to the AM19-9-DVS hapten were further characterized by antigen panel ELISA (Table 13). Sera from these mice recognize epitopes on the AM19-9-DVS-HSA molecule. […] The reduction in antibody binding to panel antigens coupled through the amino acid #1 residue is presumed to be due to masking of the Ab epitope recognition site. As the AM9-9-DVS immunogens would present the amino acid #1 face of the molecule for immune recognition, blocking the amino acid #1 residue with the DVS linker arm would thereby block Ab/Ag interaction.

[13] = test system: Mouse polyclonal sera (AM19-9-DVS-KLH immunogens); assay: as above; settings: for Percent reactivity: OD to test antigen / OD to AM19-9-DVS-HSA × 100; for OD: coated test antigen
Protocol: as §1, §2, §3, §4, §5, §6, §7, §8, §9
Sera from mice immunized with the AM19-9-DVS immunogen showing high reactivity to the AM19-9-DVS hapten were further characterized by antigen panel ELISA (Table 9).

“FK-DVS-HSA: FK conjugate with HSA used as panel antigen” was tested, and the Percent reactivity [1] was 0%, the OD [1] was 0 and the Percent reactivity [2] was 0%. It also gave an OD [2] of 0.029, a Percent reactivity ([3]; Mouse 1) of 0% and an OD ([3]; Mouse 1) of 0.005. For the same substance, the Percent reactivity ([3]; Mouse 2) was 1.0%, the OD ([3]; Mouse 2) was 0.010 and the Percent reactivity ([4]; Mouse 1) was 0%. It also gave an OD ([4]; Mouse 1) of 0, a Percent reactivity ([4]; Mouse 2) of 0% and an OD ([4]; Mouse 2) of 0. The Percent reactivity ([5]; Mouse 1) was 0%, the OD ([5]; Mouse 1) was 0 and the Percent reactivity ([5]; Mouse 2) was 0%. It also gave an OD ([5]; Mouse 2) of 0, a Percent reactivity ([6]; Mouse 3) of 0% and an OD ([6]; Mouse 3) of 0. The Percent reactivity ([6]; Mouse 4) was 0%, the OD ([6]; Mouse 4) was 0 and the Percent reactivity [7] was 0%. The OD [7] was 0, the Percent reactivity [8] was 0% and the OD [8] was 0.015. The Percent reactivity [9] was 0%, the OD [9] was 0 and the Percent reactivity [10] was 1.1%. It also gave an OD [10] of 0.029, a Percent reactivity ([11]; Mouse 1) of 0% and an OD ([11]; Mouse 1) of 0. It also gave a Percent reactivity ([11]; Mouse 2) of 0%, an OD ([11]; Mouse 2) of 0 and a Percent reactivity ([12]; Mouse 1) of 0%. The OD ([12]; Mouse 1) was 0.016, the Percent reactivity ([12]; Mouse 2) was 0% and the OD ([12]; Mouse 2) was 0. For the same substance, the Percent reactivity ([12]; Mouse 3) was 2.6%, the OD ([12]; Mouse 3) was 0.046 and the Percent reactivity ([13]; Mouse 5) was 1.0%. The OD ([13]; Mouse 5) was 0.033, the Percent reactivity ([13]; Mouse 6) was 0% and the OD ([13]; Mouse 6) was 0.032.

With “AM19-1-DVS-HSA (2): AM19-DVS hapten (DVS through primary hydroxyl of amino acid 1) conjugated to HSA” the Percent reactivity [1] was over 100%, the OD [1] was 3.504 and the Percent reactivity [2] was over 100%. The OD [2] was 3.405, the Percent reactivity ([3]; Mouse 1) was over 100% and the OD ([3]; Mouse 1) was 1.212. The Percent reactivity ([3]; Mouse 2) was over 100%, the OD ([3]; Mouse 2) was 1.128 and the Percent reactivity ([4]; Mouse 1) was over 100%. The OD ([4]; Mouse 1) was 2.171, the Percent reactivity ([4]; Mouse 2) was over 100% and the OD ([4]; Mouse 2) was 2.859. The Percent reactivity ([5]; Mouse 1) was 92.0%, the OD ([5]; Mouse 1) was 3.020 and the Percent reactivity ([5]; Mouse 2) was over 100%. The OD ([5]; Mouse 2) was 3.188, the Percent reactivity ([6]; Mouse 3) was 100% and the OD ([6]; Mouse 3) was 1.411. It also gave a Percent reactivity ([6]; Mouse 4) of 100%, an OD ([6]; Mouse 4) of 2.573 and a Percent reactivity [7] of over 100%. The OD [7] was 3.372, the Percent reactivity [8] was over 100% and the OD [8] was 1.793. For the same substance, the Percent reactivity [9] was over 100%, the OD [9] was 1.870 and the Percent reactivity [10] was over 100%. The OD [10] was 3.219, the Percent reactivity ([11]; Mouse 1) was over 100% and the OD ([11]; Mouse 1) was 0.982. The Percent reactivity ([11]; Mouse 2) was over 100%, the OD ([11]; Mouse 2) was 1.187 and the Percent reactivity ([12]; Mouse 1) was 0%. For the same substance, the OD ([12]; Mouse 1) was 0.015, the Percent reactivity ([12]; Mouse 2) was 0% and the OD ([12]; Mouse 2) was 0. It also gave a Percent reactivity ([12]; Mouse 3) of 0%, an OD ([12]; Mouse 3) of 0 and a Percent reactivity ([13]; Mouse 5) of 5.2%. The OD ([13]; Mouse 5) was 0.167, the Percent reactivity ([13]; Mouse 6) was 29.6% and the OD ([13]; Mouse 6) was 0.968.

“AM19-1-DVS-HSA (1): AM19-DVS hapten (DVS through secondary hydroxyl of amino acid 1) conjugated to HSA” was tested, and the Percent reactivity [1] was 100%, the OD [1] was 3.316 and the Percent reactivity [2] was 100%. For the same substance, the OD [2] was 3.226, the Percent reactivity ([3]; Mouse 1) was over 100% and the OD ([3]; Mouse 1) was 1.099. The Percent reactivity ([3]; Mouse 2) was over 100%, the OD ([3]; Mouse 2) was 1.462 and the Percent reactivity ([4]; Mouse 1) was over 100%. The OD ([4]; Mouse 1) was 2.683, the Percent reactivity ([4]; Mouse 2) was over 100% and the OD ([4]; Mouse 2) was 2.750. For the same substance, the Percent reactivity ([5]; Mouse 1) was 100%, the OD ([5]; Mouse 1) was 3.281 and the Percent reactivity ([5]; Mouse 2) was 100%. For the same substance, the OD ([5]; Mouse 2) was 3.028, the Percent reactivity ([6]; Mouse 3) was 83.7% and the OD ([6]; Mouse 3) was 1.181. It also gave a Percent reactivity ([6]; Mouse 4) of 91.4%, an OD ([6]; Mouse 4) of 2.351 and a Percent reactivity [7] of over 100%. It also gave an OD [7] of 2.283, a Percent reactivity [8] of 100% and an OD [8] of 1.546. The Percent reactivity [9] was 91.7%, the OD [9] was 1.390 and the Percent reactivity [10] was over 100%. For the same substance, the OD [10] was 2.731, the Percent reactivity ([11]; Mouse 1) was over 100% and the OD ([11]; Mouse 1) was 1.075. It also gave a Percent reactivity ([11]; Mouse 2) of over 100%, an OD ([11]; Mouse 2) of 1.244 and a Percent reactivity ([12]; Mouse 1) of 0%. The OD ([12]; Mouse 1) was 0.018, the Percent reactivity ([12]; Mouse 2) was 0% and the OD ([12]; Mouse 2) was 0. For the same substance, the Percent reactivity ([12]; Mouse 3) was 43.1%, the OD ([12]; Mouse 3) was 0.777 and the Percent reactivity ([13]; Mouse 5) was over 100%. For the same substance, the OD ([13]; Mouse 5) was 3.411, the Percent reactivity ([13]; Mouse 6) was 92.5% and the OD ([13]; Mouse 6) was 3.022.
